Tested on: Du145 cells
Assay: Apoptosis in Bax-deficient Du145 cells
Assay type: cell-based, human
Protocol: Bax-deficient Du145 cells (10^6 cells) were transfected by 1.0 μg of pcDNA3-Bax (Bax) or pcDNA3-Bax-ΔN (BaxΔN), together with 1.0 μg of pCMV-2B (Vector), pcDNA3-Myc-XIAP (XIAP), pcDNA3-Bcl-2 (Bcl-2), pcDNA3-Bcl-XL (Bcl-XL), or pCMV-2B-Ku70 wt (Ku70 wt). All the cells were also co-transfected with 0.5 μg PEGFP for the marking of transfected cells. Cells in the control group received 0.5 μg of pEGFP, 1.0 μg of pcDNA3, and 1.0 μg of pCMV-2B. One day following transfection, apoptosis was detected as described in FIG. 1. […] Du145 cells (10^6 cells) were transfected with 1.0 μg pCMV-2B (Vector), pcDNA3-Myc-XIAP (XIAP), pCMV-2B-Ku70 wt (Ku70 wt), or pCMV-2B-Ku70536-609 (Ku70536-609) together with 0.5 μg pEGFP. One day following transfection, cells were treated with 200 nM STS and the number of apoptotic cells was counted as described in FIG. 1 after 24 hours of STS treatment. In control group, 1.0 μg of pcDNA3 and pCMV-2B were transfected (Control). […] After 24 hours, apoptotic cells were counted as described in FIG. 1. […] The number of apoptotic cells was counted as described in FIG. 1. […] One day following transfection, cells were treated with 1 μg/ml anti-Fas antibody or 100 ng/ml TRAIL and the number of apoptotic cells was counted after 24 hours of anti-Fas antibody or TRAIL treatment as described in FIG. 1. […]
HEK293T cells, HeLa cells, and mouse embryonic fibroblasts (MEF) were cultured in DMEM supplemented with 10% fetal bovine serum (FBS). […] Apoptosis in the transfected cells were analyzed as follows: Plasmid encoding EGFP (0.5 ug of pEGFP) was transfected to all the groups to mark the transfected cells. One day following transfection of the plasmids listed in the figure legends or treatment of the cells with staurosporin (STS) or UVC-irradiation, cells were stained with Hoechst dye and cells with apoptotic nuclei were counted in GFP expressing cells under fluorescent microscope as previously reported (Wei, et al., 2001). […] Caspase activities of cells were measured by detecting the cleavage of fluorogenic substrate of caspase (DEVD-afc) as previously described (Deveraux, et al., 1997).

In the case of “Ku70: human full length Ku70, 70 kDa subunit of Ku-complex (609 amino acids), expressed from pCMV-2B plasmid”, the “effect on STS-induced apoptosis in Bax-deficient cells” value (Du145, 200 nM STS, 24 hours, Ku70 overexpression) was “did not suppress STS-induced apoptosis in this Bax-deficient cell line”, the “effect on UVC-irradiation-induced cell death in Bax-deficient cells” value (Du145, 200 J/m^2 UVC, 24 hours) was “can attenuate UVC-irradiation-induced cell death regardless of Bax expression” and the “effect on BaxΔN-induced apoptosis” value (Du145 cells lacking endogenous Bax) was “did not suppress apoptosis-inducing activity of BaxΔN”.

From patent US20070036775A1, “Method of modulating or examining Ku70 levels in cells” (priority 2001, published 2007)
